The values that follow are results of earlier work, collected in patent US20080154230A1 (priority 2006, published 2008).

For the data set the following is noted: in vivo.

For “Starch Hydroxypropyltriammonium Chloride [SENSOMER® CI-50]”, the “responses of subjects in human repeated-insult study” value was “no clinically significant responses”.
